{
  "source": "patent US20230226207A1",
  "about": "“Camptothecin Drug Having High-Stability Hydrophilic Connecting Unit And Conjugate Thereof” (SICHUAN BAILI PHARM CO., LTD, priority 2020, published 2023)",
  "key": {"[1]": {"tested_on": "NCI-H1975 (human non-small cell lung cancer adenocarcinoma cells) subcutaneously transplanted tumor", "experiment": "In vivo efficacy on NCI-H1975 xenograft tumors", "set-up": "species or system Balb/c-nu nude mice", "details": "NCI-H1975, 11.25 mg/kg, tail vein injection", "description": "(§1) 1) Experimental Materials • Cells: from the cell bank of the Chinese Academy of Sciences; • Tumor cell culture medium: Gibco; • Balb/c-nu nude mice: female, 5-7 weeks (the age of mice at the time of tumor cell inoculation), weighing 18.0-24.0 g, 170 (110 plus 60 surplus mice). Purchased from Beijing Weitong Lihua Laboratory Animal Technology Co., Ltd.; • Test substance and reference substance: • Test products: ADC-61 and ADC-6 were provided by Chengdu Dote Antibody Drug Co., Ltd. • Histidine buffer, provided by Chengdu Dote Antibody Pharmaceutical Co., Ltd. • 0.9% Sodium Chloride Injection: Kelun Pharmaceutical Co., Ltd.\nNCI-H1975 (human non-small cell lung cancer adenocarcinoma cells) were cultured in RPMI1640 medium. NCI-H1975 cells in the exponential growth phase were collected and resuspended in RPMI1640 medium to a suitable concentration for subcutaneous tumor inoculation in mice.\n(§2) 85 female nude mice were inoculated subcutaneously on the right shoulder with 5×10^7 NCI-H1975 cells. When the average tumor volume is about 170 mm^3, they are randomly grouped according to the tumor size. Fifty-five tumor-bearing mice with appropriate tumor volume were selected and randomly divided into groups and the administration was started (tail vein injection, the administration volume was 0.1 ml/10 g). The grouping day is defined as day 0.\n(§3) In the course of this experiment, the animal experiment operation was in accordance with the requirements of the standard operating procedures for the in vivo screening of anti-tumor drugs. After tumor inoculation, routine monitoring includes tumor growth (the tumor is measured twice a week) and the effect of treatment on the normal behavior of the animal. The specific content includes the activity of the experimental animal, food and drinking status, weight gain or loss (weight is measured weekly 2 times), eyes, coat and other abnormal conditions. The clinical symptoms observed during the experiment were recorded in the original data. Tumor volume calculation formula: tumor volume (mm^3)=½×(a×b^2) (where a represents the long diameter and b represents the short diameter). Manually recorded data was used in the experiment, including the measurement of the length and short diameter of the tumor and the weighing of the animal's weight.\n(§4) The relative tumor proliferation rate, T/C %, is the percentage value of the treatment group and the control group relative to the tumor volume or tumor weight at a certain point in time. Calculated as follows:\n(§5) T/C %=TRTV/CRTV×100% (TRTV: average RTV in the treatment group; CRTV: average RTV in the vehicle control group; RTV=Vt/V0, V0 is the tumor volume of the animal at the time of grouping, and Vt is the aminal's tumor volume after treatment Tumor volume); or T/C %=TTW/CTW×100% (TTW: average tumor weight at the end of the experiment in the treatment group; CTW: average tumor weight at the end of the experiment in the vehicle control group).\n(§6) [T and C are the relative tumor volume (RTV) or tumor weight (TW) of the treatment group and the control group at a specific time point, respectively]."}, "[2]": {"tested_on": "N87 (human gastric cancer cells)", "experiment": "In vitro proliferation inhibition of N87 tumor cells (MTS)", "format": "cell-based", "details": "5 days", "procedure": "(§7) 1) Experimental Materials • Cells: from the cell bank of the Chinese Academy of Sciences; • Tumor cell culture medium: Gibco; • FBS: BIOWEST;\n(§8) 2) Preparation of Medium • Growth medium (with 10% FBS, Penicillin/streptomycin (100 U/mL); • Detection medium (with 1% FBS, Penicillin/streptomycin (100 U/mL);\n(§9) Turn on the UV lamp in the biological safety cabinet 30 minutes in advance, and ventilate for 3 minutes. Put the growth medium, detection medium, D-PBS and pancreatin into a 37° C. constant temperature water bath to preheat, then disinfect the surface with alcohol and put it in a biological safety cabinet. Select cells with a confluence of ˜80% (logarithmic growth phase), put them in a biological safety cabinet, aspirate the old medium, rinse with D-PBS, aspirate and discard, digest with trypsin for 2 to 3 minutes, and then add to growth Stop trypsin in the medium, and centrifuge at 500×g for 5 min. Aspirate the centrifugal supernatant, mix well with 4 mL detection medium, take 100 uL for counting (take out 50 uL cell fluid, add 50 μL 0.4% Trypan Blue Stain and mix well, and count after mixing). […]\n(§10) Take out the MTS reagent after the test sample is exposed for 5 days. […] After the reaction, the 96-well plate was taken out, the OD490 nm absorbance value was detected in the microplate reader, and the data was recorded, sorted, and stored."}, "[3]": {"tested_on": "NCI-N87 (human gastric cancer cells) subcutaneously transplanted tumor", "experiment": "In vivo efficacy on NCI-N87 xenografts", "set-up": "species or system Balb/c-nu nude mice", "details": "NCI-N87, 11.25 mg/kg (naked antibody), tail vein injection", "description": "as §1\nNCI-N87 (human gastric cancer cells) were cultured in RPMI1640 medium. NCI-N87 cells in the exponential growth phase were collected, and RPMI1640 medium was resuspended to a suitable concentration for subcutaneous tumor inoculation in mice.\nas §2, with “5×10^7 NCI-N87” for “5×10^7 NCI-H1975”, “is” for “is about”, “170 mm” for “170 mm^3,”, “day 0,” for “day 0.”\nas §3, §4, §5, §6"}, "[4]": {"tested_on": "SK-BR-3 (human breast adenocarcinoma cells)", "experiment": "In vitro proliferation inhibition of SK-BR-3 tumor cells (MTS)", "format": "cell-based", "details": "SK-BR-3 cells, 5 days", "procedure": "as §7, §8, §9, §10"}},
  "data": [
    {"substance": "Trastuzumab: naked antibody, anti-HER2 monoclonal antibody (trade name Herceptin), SEQ ID NO: 1 and 2", "values": [
      {"measurement": "Average Tumor Volume", "setting": "[1]; D 0", "result": 172.19, "unit": "mm^3"},
      {"measurement": "Average Tumor Volume", "setting": "[1]; D 3", "result": 296.69, "unit": "mm^3"},
      {"measurement": "Average Tumor Volume", "setting": "[1]; D 7", "result": 627.87, "unit": "mm^3"},
      {"measurement": "Average Tumor Volume", "setting": "[1]; D 10", "result": 887.25, "unit": "mm^3"},
      {"measurement": "Average Tumor Volume", "setting": "[1]; D 14", "result": 1094.88, "unit": "mm^3"},
      {"measurement": "Average Tumor Volume", "setting": "[1]; D 17", "result": 1458.59, "unit": "mm^3"},
      {"measurement": "Average Tumor Volume", "setting": "[1]; D 21", "result": 1659.49, "unit": "mm^3"},
      {"measurement": "Average Tumor Volume", "setting": "[1]; D 24", "result": 1893.14, "unit": "mm^3"},
      {"measurement": "Average Tumor Volume", "setting": "[1]; D 28", "result": 1795.55, "unit": "mm^3"},
      {"measurement": "Average Tumor Volume", "setting": "[1]; D 31", "result": 1900.54, "unit": "mm^3"},
      {"measurement": "IC50", "setting": "[2]", "result": "> 500", "unit": "nM"},
      {"measurement": "Average Tumor Volume", "setting": "[3]; D 0", "result": 180.57, "unit": "mm^3"},
      {"measurement": "Average Tumor Volume", "setting": "[3]; D 3", "result": 226.45, "unit": "mm^3"},
      {"measurement": "Average Tumor Volume", "setting": "[3]; D 7", "result": 322.76, "unit": "mm^3"},
      {"measurement": "Average Tumor Volume", "setting": "[3]; D 10", "result": 445.83, "unit": "mm^3"},
      {"measurement": "Average Tumor Volume", "setting": "[3]; D 14", "result": 542.50, "unit": "mm^3"},
      {"measurement": "Average Tumor Volume", "setting": "[3]; D 17", "result": 631.28, "unit": "mm^3"},
      {"measurement": "Average Tumor Volume", "setting": "[3]; D 21", "result": 725.55, "unit": "mm^3"},
      {"measurement": "Average Tumor Volume", "setting": "[3]; D 24", "result": 848.82, "unit": "mm^3"},
      {"measurement": "Average Tumor Volume", "setting": "[3]; D 28", "result": 942.65, "unit": "mm^3"},
      {"measurement": "Average Tumor Volume", "setting": "[3]; D 31", "result": 1004.93, "unit": "mm^3"},
      {"measurement": "IC50", "setting": "[4]", "result": "> 500", "unit": "nM"}
    ]}
  ]
}
